The term IC50 denotes the midpoint of a concentration-inhibition curve.

Sequences of proteins named here, by UniProt entry; tags and fusion partners are left off. Residues count along the entry.
UniProt P00797, 67-406: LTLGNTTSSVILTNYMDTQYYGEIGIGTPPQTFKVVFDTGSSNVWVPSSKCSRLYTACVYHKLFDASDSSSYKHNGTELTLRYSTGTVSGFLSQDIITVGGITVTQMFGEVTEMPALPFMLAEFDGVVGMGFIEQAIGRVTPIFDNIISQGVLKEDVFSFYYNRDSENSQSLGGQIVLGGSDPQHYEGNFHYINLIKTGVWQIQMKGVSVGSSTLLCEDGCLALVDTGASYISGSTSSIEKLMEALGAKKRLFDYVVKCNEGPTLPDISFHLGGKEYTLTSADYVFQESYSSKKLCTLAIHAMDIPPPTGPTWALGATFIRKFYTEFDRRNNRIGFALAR

The experiment has as its target Recombinant human renin (Homo sapiens, UniProt P00797). The experiment in a line: Inhibition of renin (fluorogenic peptide substrate). The settings on record: read-out: IC50 values for inhibition of renin (fluorogenic peptide substrate); renin 5 nM, substrate Dabcyl-γ-Abu-[…]-EDANS 10 μM, 2 h room temperature, Tris buffer pH 8; compounds tested as the obtained salt.

As for `CC1CN(C(=O)c2c(Oc3ccccc3)n(-c3ccccc3)c3ccccc23)CCN1` (stereo not shown) [Example 123], the IC50 was 6.5 µM.

These data come from patent US8211885B2, “Cyclic indole-3-carboxamides, their preparation and their use as pharmaceuticals” (Sanofi-Aventis, priority 2008, dated 2012).
